The target in assay [1] is Muscarinic acetylcholine receptor M3 (Homo sapiens) (UniProt P20309). The experiment in a line: Agonist activity at human recombinant M3 muscarinic acetylcholine receptor assessed as calcium mobilization at 10 uM measured for 180 secs by FLIPR analysis relative to control. The format is functional. The conditions noted are these: time 180.0 sec. Background: Calcium flux is commonly read through the fluorescence of an indicator in the cells.

Amino acid sequences for entries named in this document (tags omitted).
UniProt P20309, whole entry, looked up: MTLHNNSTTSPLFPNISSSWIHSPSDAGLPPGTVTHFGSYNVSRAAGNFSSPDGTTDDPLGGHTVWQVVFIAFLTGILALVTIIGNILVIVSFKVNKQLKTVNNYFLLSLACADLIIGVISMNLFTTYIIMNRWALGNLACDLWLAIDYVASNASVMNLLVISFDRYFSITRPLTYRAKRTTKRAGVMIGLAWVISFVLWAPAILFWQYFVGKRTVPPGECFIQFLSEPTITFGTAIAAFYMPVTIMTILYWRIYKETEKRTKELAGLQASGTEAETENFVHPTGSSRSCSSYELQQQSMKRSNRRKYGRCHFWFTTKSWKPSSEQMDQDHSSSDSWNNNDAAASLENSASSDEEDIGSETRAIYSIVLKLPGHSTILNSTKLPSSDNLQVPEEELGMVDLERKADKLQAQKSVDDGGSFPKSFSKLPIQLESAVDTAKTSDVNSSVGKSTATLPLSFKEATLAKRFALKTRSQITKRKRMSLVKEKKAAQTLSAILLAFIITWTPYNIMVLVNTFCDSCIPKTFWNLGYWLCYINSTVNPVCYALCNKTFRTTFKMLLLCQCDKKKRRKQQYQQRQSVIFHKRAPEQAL
UniProt P08912, whole entry: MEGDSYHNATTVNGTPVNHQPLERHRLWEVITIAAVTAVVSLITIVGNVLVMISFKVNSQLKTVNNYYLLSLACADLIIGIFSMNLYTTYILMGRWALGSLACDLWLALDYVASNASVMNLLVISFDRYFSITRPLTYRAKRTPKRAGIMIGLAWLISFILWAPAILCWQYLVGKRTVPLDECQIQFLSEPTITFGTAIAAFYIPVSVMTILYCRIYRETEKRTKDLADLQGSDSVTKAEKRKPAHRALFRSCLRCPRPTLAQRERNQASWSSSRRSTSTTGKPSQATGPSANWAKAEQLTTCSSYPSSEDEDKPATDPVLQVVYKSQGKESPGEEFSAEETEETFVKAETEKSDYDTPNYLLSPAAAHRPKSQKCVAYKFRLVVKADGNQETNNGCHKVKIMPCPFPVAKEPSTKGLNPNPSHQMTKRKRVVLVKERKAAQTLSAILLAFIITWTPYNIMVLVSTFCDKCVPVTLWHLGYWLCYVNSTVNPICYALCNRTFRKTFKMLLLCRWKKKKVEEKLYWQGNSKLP
UniProt P10980, whole entry: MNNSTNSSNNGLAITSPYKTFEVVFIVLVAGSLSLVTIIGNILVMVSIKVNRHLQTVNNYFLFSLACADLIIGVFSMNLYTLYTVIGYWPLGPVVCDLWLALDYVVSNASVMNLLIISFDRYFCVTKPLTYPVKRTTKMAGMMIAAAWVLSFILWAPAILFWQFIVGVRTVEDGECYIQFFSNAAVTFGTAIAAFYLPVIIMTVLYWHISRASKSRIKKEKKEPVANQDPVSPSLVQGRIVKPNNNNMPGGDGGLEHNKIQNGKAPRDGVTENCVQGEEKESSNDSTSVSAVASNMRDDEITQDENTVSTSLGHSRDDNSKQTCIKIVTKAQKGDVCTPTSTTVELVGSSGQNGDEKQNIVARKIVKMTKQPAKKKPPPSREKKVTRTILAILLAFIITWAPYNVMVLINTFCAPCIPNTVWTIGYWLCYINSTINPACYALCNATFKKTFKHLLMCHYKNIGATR

Assay [2] addresses Muscarinic acetylcholine receptor M5 (Homo sapiens) (UniProt P08912). The experiment in a line: Agonist activity at M5 muscarinic acetylcholine receptor (unknown origin) assessed as calcium mobilization at 10 uM measured for 180 secs by FLIPR analysis relative to control. The class given is functional. The conditions noted are these: time 180.0 sec.
For assay [3], the target named is Muscarinic acetylcholine receptor M2 (Rattus norvegicus) (UniProt P10980). Description: Ex vivo positive allosteric modulator activity at M2 muscarinic acetycholine receptor in Wistar rat assessed as reduction of carbachol-induced heart rate infused for 20 mins into aortic cannula. The format is functional.
Assay [4] has the same target. The experiment in a line: Ex vivo agonist activity at M2 muscarinic acetylcholine receptor in Wistar rat assessed as effect on heart function infused for 20 mins into aortic cannula. The class given is functional.
For assay [5] the target is unchanged. The experiment in a line: Ex vivo antagonist activity at M2 muscarinic acetylcholine receptor in Wistar rat assessed as effect on heart function infused for 20 mins into aortic cannula. The format is functional.
For assay [6] the target is unchanged. Description: Ex vivo positive allosteric modulator activity at M2 muscarinic acetycholine receptor in Wistar rat assessed as leftward shift in carbachol dose-response curve for heart rate at 300 nM infused for 20 mins into aortic cannula. The class given is functional.
The target is the same in assay [7]. Description: Ex vivo positive allosteric modulator activity at M2 muscarinic acetycholine receptor in Wistar rat assessed as reduction of carbachol-induced heart rate infused for 20 mins into aortic cannula in presence of M2 muscarinic acetylcholine receptor antagonist, atropine. The class given is functional.
The test system of assay [8] is Rattus norvegicus. Description: Restoration of cardiac autonomic balance in free-moving conscious spontaneously hypertensive rat assessed as reduction of heart rate at 10 mg/kg, po administered via gavage by radiotelemetry. The format is functional, organism-based.
Assay [9] has as its system Rattus norvegicus. The experiment in a line: Restoration of cardiac autonomic balance in free-moving conscious spontaneously hypertensive rat assessed as reduction of mean arterial blood pressure at 10 mg/kg, po administered via gavage by radiotelemetry. The class given is functional, organism-based.

Calls of active or inactive are those of the source. No cut-off for these calls is given here.

Consider `C[C@H](NC(=O)c1cn(-c2c(F)cc(F)cc2F)c2nc(N3C[C@@H](O)[C@H](O)C3)c(F)cc2c1=O)C(F)(F)C(F)(F)F`, for which the Activity was 0.4% in assay [1], 1.6% in [2] and “Dose-dependent-effect” in assay [3]. In addition, the outcome in assay [4], in assay [5] and in assay [7] was inactive. Moreover, the outcome in assay [6] was Active.

For `CC(C)NCC(O)COc1ccc(CC(N)=O)cc1` (centres undefined), the outcome in the assay with Rattus norvegicus [8] and in the assay on Rattus norvegicus [9] was Active.

The record behind these values is ChEMBL document CHEMBL6083268, “Discovery of BAY 2413555, First Selective Positive Allosteric Modulator of the M2 Receptor to Restore Cardiac Autonomic Balance” (J Med Chem, 2024).
